Test results: PMC7615311 (Science (New York, N.Y.), 2023)

Legend:
Type in all cases: cell-based, human
BT-474 cells = test: decryptM phosphoproteome profiling in BT-474 cells
SK-BR-3 cells = test: decryptM phosphoproteome profiling in SK-BR-3 cells
MDA-MB-175 cells = test: decryptM phosphoproteome profiling in MDA-MB-175 cells

Measured: impact on the cellular phosphoproteome

trastuzumab: breast cancer therapeutic antibody presumed to block signaling by preventing HER2 dimerization
no potent impact: all assays above
